Source: patent publication US20070282095A1
Values belong to the substance of their own block, whether it stands above or below them.

What was measured:
soluble thrombomodulin [1] = molecular target: soluble thrombomodulin (UniProt P07204); experiment: IAsys biosensor; derivative immobilized (about 1,800 arc); 16.7 nM then 50 nM TM; reference 205A43A thrombin (FIG. 19)
[2] = molecular target: blood coagulation factor 8 (UniProt P00451); experiment: IAsys biosensor; derivative immobilized; 100 nM Fbgn and 100 nM FVIII; reference 205A43A thrombin
[3] = molecular target: blood coagulation factor 8 (UniProt P00451); experiment: IAsys biosensor; about 2,000 arc of derivative immobilized; 500 nM FVIII
fibrinogen [4] = molecular target: fibrinogen (UniProt P02671); experiment: IAsys biosensor; about 2,000 arc of derivative immobilized; 500 nM Fbgn
[5] = molecular target: blood coagulation factor 8 (UniProt P00451); experiment: IAsys biosensor, FAST FIT program; derivative immobilized
soluble thrombomodulin [6] = molecular target: soluble thrombomodulin (UniProt P07204); experiment: IAsys biosensor; about 2,000 arc of derivative immobilized; 50 nM soluble TM
[7] = molecular target: blood coagulation factor 8 (UniProt P00451); experiment: IAsys biosensor; derivative immobilized on CM dextran cuvette; 100 nM FVIII added; reference AHT cuvette
[8] = molecular target: thrombin receptor extracellular domain peptide; experiment: IAsys biosensor; derivative immobilized on CM dextran cuvette, thrombin receptor extracellular domain peptide (SEQ ID NO:4) 10-1,000 nM; FAST fit
fibrinogen [9] = molecular target: fibrinogen (UniProt P02671); experiment: IAsys biosensor; about 4,100 arc of derivative immobilized; 500 nM Fbgn
soluble thrombomodulin [10] = molecular target: soluble thrombomodulin (UniProt P07204); experiment: IAsys biosensor; about 4,100 arc of derivative immobilized; 50 nM soluble TM
[11] = molecular target: blood coagulation factor 8 (UniProt P00451); experiment: IAsys biosensor; about 4,100 arc of derivative immobilized; 500 nM FVIII
[12] = molecular target: blood coagulation factor 8 (UniProt P00451); experiment: IAsys biosensor; derivative immobilized; 100 nM Fbgn and 100 nM FVIII; reference AHT cuvette
[13] = molecular target: hirudin C-terminal peptide; experiment: hirudin C-terminal peptide-immobilized gel column (method E); Western blot of flow-through and eluted fractions
[14] = molecular target: thrombin receptor extracellular domain peptide; experiment: IAsys biosensor; AHT immobilized, thrombin receptor extracellular domain peptide (SEQ ID NO:4) as analyte (filing cites method D)

Substance: 65A205A43A thrombin (lysine 65 to alanine, serine 205 to alanine, histidine 43 to alanine in B chain) (from UniProt P00734 315-363; P00734 364-622) (enzyme)
TM-binding ability relative to 205A43A thrombin (per immobilized protein) (soluble thrombomodulin [1]): 30% | ratio between FVIII-binding ability and Fbgn-binding ability, relative to 205A43A thrombin [2]: 2.8 folds

Substance: 203A205G thrombin (glycine at position 203 in B chain substituted by alanine, serine at position 205 substituted by glycine) (from UniProt P00734 315-363; P00734 364-622) (enzyme)
FVIII binding per immobilized amount relative to AHT [7]: 11% | Kd [8]: 3200 nM | Kd [5]: 5.07 nM | amount adsorbed after three minutes (fibrinogen [9]): 300 arc sec | amount adsorbed after three minutes (soluble thrombomodulin [10]): 100 arc sec | amount adsorbed after three minutes [11]: 300 arc sec

Substance: 205A thrombin (serine at position 205 in B chain substituted by alanine) (from UniProt P00734 315-363; P00734 364-622) (enzyme)
FVIII binding signal relative to AHT [7]: 40%

Substance: anhydrothrombin (from UniProt P00734 315-363; P00734 364-622) (enzyme)
Kd [14]: 1200 nM

Continued, values first:

amount adsorbed after three minutes [3]: 300 arc sec | amount adsorbed after three minutes (fibrinogen [4]): 80 arc sec | Kd [5]: 22.5 nM | amount adsorbed after three minutes (soluble thrombomodulin [6]): 20 arc sec
Substance: 77E203A205G thrombin (lysine 77 to glutamic acid, glycine 203 to alanine, serine 205 to glycine in B chain) (from UniProt P00734 315-363; P00734 364-622) (enzyme)

FVIII signal per immobilized protein amount relative to AHT [7]: 5%
Substance: 203A205A thrombin (glycine 203 to alanine, serine 205 to alanine in B chain) (from UniProt P00734 315-363; P00734 364-622) (enzyme)

ratio between the binding abilities to FVIII and Fbgn, relative to AHT [12]: 1.4 folds
Substance: 205A43A thrombin (serine 205 to alanine, histidine 43 to alanine in B chain) (from UniProt P00734 315-363; P00734 364-622) (enzyme)

percent bound to hirudin C-terminal peptide gel [13]: > 95%
Substance: 205A43A thrombin (serine 205 to alanine, histidine 43 to alanine in B chain) (from UniProt P00734 315-363; P00734 364-622) (enzyme; other documents disagree on this pair)

binding ratio between FVIII and Fbgn, relative to AhT [12]: 1.2 folds
Substance: 205A43S thrombin (serine 205 to alanine, histidine 43 to serine in B chain) (from UniProt P00734 315-363; P00734 364-622) (enzyme)
